Measurements taken from ChEMBL document CHEMBL4715914, “Chemical validation of a druggable site on Hsp27/HSPB1 using in silico solvent mapping and biophysical methods” (Bioorg Med Chem, 2021).
Activity calls are given as the source filed them. No cut-off for these calls is given here.

Amino acid sequences for entries named in this document (tags omitted).
UniProt P04792, whole entry: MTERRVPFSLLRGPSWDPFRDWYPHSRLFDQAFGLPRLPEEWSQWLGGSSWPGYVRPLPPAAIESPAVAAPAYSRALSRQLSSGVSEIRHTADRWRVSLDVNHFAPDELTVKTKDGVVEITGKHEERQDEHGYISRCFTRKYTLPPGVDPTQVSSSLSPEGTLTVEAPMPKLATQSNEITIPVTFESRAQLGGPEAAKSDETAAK

The molecules below were run against Heat shock protein beta-1 (Homo sapiens, UniProt P04792) (assay: Binding affinity to HSP27 (79 to 176 residues) (unknown origin) expressed in Escherichia coli BL21 (DE3) cells by HSQC NMR analysis).

Compound	Kd(app)
Cc1ccc(Oc2ccc([N+](=O)[O-])cc2[N+](=O)[O-])c(C)c1	inactive
O=[N+]([O-])c1ccc(Oc2ccc(C(F)(F)F)cc2)c([N+](=O)[O-])c1	inactive
O=[N+]([O-])c1ccc(Oc2ccc(F)c(F)c2F)c([N+](=O)[O-])c1	inactive
O=Cc1ccc(Oc2ccc([N+](=O)[O-])cc2[N+](=O)[O-])cc1	inactive
O=[N+]([O-])c1ccc(Sc2ccc(F)cc2F)c([N+](=O)[O-])c1	inactive
O=[N+]([O-])c1ccc(Nc2ccc(F)cc2F)c([N+](=O)[O-])c1	inactive
O=[N+]([O-])c1ccc(Oc2cccc(F)c2)c([N+](=O)[O-])c1	inactive
O=C(O)c1ccc(Oc2ccc([N+](=O)[O-])cc2[N+](=O)[O-])cc1	inactive
O=[N+]([O-])c1ccc(Oc2ccc(Cl)cc2Cl)c([N+](=O)[O-])c1	inactive
O=[N+]([O-])c1ccc(Oc2c(F)c(F)cc(F)c2F)c([N+](=O)[O-])c1	inactive
O=C(Oc1ccc([N+](=O)[O-])cc1[N+](=O)[O-])c1ccc(F)cc1F	inactive
O=[N+]([O-])c1cc([N+](=O)[O-])c(Oc2ccc(F)cc2F)cc1Oc1ccc(F)cc1F	inactive
